“And” between values parts separate entries of the source, which are not always exact repeats. Equal values may be shown once. Read-outs that look alike come from different tables or passages of the source. Marks after values point to notes of the source that are not given here.
Key:
[1] = tested on: retinal neovascularization in OIR mice; details: for % NV Reduction Compared to Control Peptide: 10 μg per eye intravitreal, vs inactive Control Peptide GRGETP; for % NV Reduction: single intravitreal injection 10 μg per eye, summary Table 3
[2] = tested on: human RPE cells; details: for % RPE Protection (High HQ): donor RPE cells stressed with high level of hydroquinone; for % RPE Protection (Low HQ): donor RPE cells stressed with low level of hydroquinone; for Cytoprotective effect / cell viability in stressed RPE cells (in words): HQ- (or CCCP-) stressed RPE cells
[3] = tested on: human RPE cells; details: for Effect on ROS level in stressed RPE cells (in words): co-treatment with HQ; for % Reactive Species, peptide alone: unstressed RPE cells, % of control
[4] = tested on: human RPE cells; details: for Effect on mitochondria membrane potential (in words): cells co-treated with HQ; for % Mitochondrial Membrane Potential, peptide alone: unstressed RPE cells, compared to control
[5] = tested on: human RPE cells; details: for Glutathione (GSH) level in HQ stressed RPE cells: 160 μM HQ + 400 μM peptide, 1.5 hours; for Effect on GSH level (in words): cells stressed with HQ; for Glutathione (GSH) level, peptide alone: unstressed RPE cells, 400 μM peptide
[6] = tested on: primary human RPE cells; details: HQ 180 μM, RSG 800 μM or ALG-3002 100 μM, 4 hours, transmission EM

| Compound | % NV Reduction Compared to Control Peptide [1] | % NV Reduction [1] | % RPE Protection (High HQ) [2] | % RPE Protection (Low HQ) [2] | Effect on ROS level in stressed RPE cells (in words) [3] | Effect on mitochondria membrane potential (in words) [4] | Cell viability (% of MEM) ([2]; HQ 140 μM + 400 μM peptide) | Cell viability (% of MEM) ([2]; HQ 140 μM + 800 μM peptide) | Cell viability (% of MEM) ([2]; HQ 160 μM + 400 μM peptide) | Cell viability (% of MEM) ([2]; HQ 160 μM + 800 μM peptide) [%****] | Cytoprotective effect / cell viability in stressed RPE cells (in words) [2] | also measured |
| --- | --- | --- | --- | --- | --- | --- | --- | --- | --- | --- | --- | --- |
| CC(O)[C@H](NC(=O)[C@H](CS)NC(=O)CNC(=O)[C@H](CCCNC(=N)N)NC(=O)CN)C(=O)N1CCC[C@H]1C(=O)O (stereo partly drawn) [ALG-3002, Gly-Arg-Gly-Cys-Thr-Pro] | 66% | 66% | 81% | 80% | significantly reduce ROS level | significantly improve mitochondria membrane potential |  |  |  |  |  | RPE Cell Viability, CCCP + ALG-3002 ([2]; CCCP-stressed RPE cells, 100 uM): 88%****; Cell viability (% of MEM) ([2]; HQ 140 μM + 25 μM peptide): 123%****; Cell viability (% of MEM) ([2]; HQ 140 μM + 100 μM peptide): 116%****; Cell viability (% of MEM) ([2]; HQ 160 μM + 50 μM peptide): 161%****; Cell viability (% of MEM) ([2]; HQ 160 μM + 100 μM peptide): 163%****; RPE Cell Viability, HQ + ALG-3002 (P2) ([2]; HQ-stressed RPE cells, 100 uM): 103%****; % Reactive Species, peptide alone ([3]; peptide 100 μM): 73%*; % Mitochondrial Membrane Potential, peptide alone ([4]; peptide 100 μM): 100% NS; Glutathione (GSH) level in HQ stressed RPE cells [5]: 8060↑ RLU/LDH units; Effect on GSH level (in words) [5]: significantly improved GSH level; Glutathione (GSH) level, peptide alone [5]: 8657↑ RLU/LDH units; Effect on HQ-induced morphologic changes in mitochondria (in words) [6]: significantly reduce the severity of HQ-induced morphologic changes in mitochondria |
| CC(O)[C@H](NC(=O)[C@H](CC(=O)O)NC(=O)CNC(=O)[C@H](CCCCN)NC(=O)CN)C(=O)N1CCC[C@H]1C(=O)O (stereo partly drawn) [ALG-3009, Gly-Lys-Gly-Asp-Thr-Pro] | 40% | 40% | 26% | 33% |  |  | 74%*** | 69%*** | 52%**** | 74 |  |  |
| N=C(N)NCCC[C@H](NC(=O)CN)C(=O)NCC(=O)N[C@@H](CS(=O)(=O)O)C(=O)NCC(=O)NCC(=O)NCC(=O)N[C@@H](CC(=O)O)C(=O)NCC(=O)O [ALG-3006, Gly-Arg-Gly-Cys(acid)-Gly-Gly-Gly-Asp-Gly] | 62% | 62% | 25% | 50% |  |  | 83%**** | 113%**** | 39%***8 | 66 | greater cytoprotective effect than RSG |  |
| CC(O)[C@H](NC(=O)CNC(=O)[C@H](CC(=O)O)NC(=O)[C@H](CCCNC(=N)N)NC(=O)CN)C(=O)N1CCC[C@H]1C(=O)O (stereo partly drawn) [ALG-3003, Gly-Arg-Asp-Gly-Thr-Pro] | 44% | 44% | 17% | 29% |  |  | 50%**** | 73%**** | 50%**** | 54 |  |  |
| CC(O)[C@H](NC(=O)[C@H](CC(N)=O)NC(=O)CNC(=O)[C@H](CCCNC(=N)N)NC(=O)CN)C(=O)N1CCC[C@H]1C(=O)O (stereo partly drawn) [ALG-3005, Gly-Arg-Gly-Asn-Thr-Pro] | 64% | 64% | 16% | 53% |  |  | 82%**** | 95%**** | 36%*** | 70 |  |  |
| C[C@@H](O)[C@H](NC(=O)[C@H](CS(=O)(=O)O)NC(=O)CNC(=O)[C@H](CCCNC(=N)N)NC(=O)CN)C(=O)N1CCC[C@H]1C(=O)O [Risuteganib, Glycyl-L-arginylglycyl-3-sulfo-L-alanyl-L-threonyl-L-proline, reference compound] | 47-64% | 47-64% | 13-20% | 12-38% |  |  |  |  |  |  |  | Cell viability (% of MEM) ([2]; HQ 150 μM + 400 μM peptide): 24%**; Cell viability (% of MEM) ([2]; HQ 170 μM + 400 μM peptide): 29%**; Glutathione (GSH) level in HQ stressed RPE cells [5]: 3284↑ RLU/LDH units; Effect on GSH level (in words) [5]: significantly improved GSH level; Glutathione (GSH) level, peptide alone [5]: 8995↑ RLU/LDH units; Effect on HQ-induced morphologic changes in mitochondria (in words) [6]: significantly reduce the severity of HQ-induced morphologic changes in mitochondria |
| CC(O)[C@H](NC(=O)[C@H](CCCNC(=N)N)NC(=O)CNC(=O)[C@H](CC(=O)O)NC(=O)CN)C(=O)N1CCC[C@H]1C(=O)O (stereo partly drawn) [ALG-3007, Gly-Asp-Gly-Arg-Thr-Pro] | 56% | 56% | 31% | 48% | significantly reduce ROS level | significantly improve mitochondria membrane potential | 81%**** | 97%**** | 45%**** | 73 | greater cytoprotective effect than RSG | % Reactive Species, peptide alone ([3]; peptide 400 μM): 82% NS; % Mitochondrial Membrane Potential, peptide alone ([4]; peptide 400 μM): 115%** |
| CC(O)[C@H](NC(=O)[C@H](CS(=O)(=O)O)NC(=O)[C@H](C)NC(=O)[C@H](CCCNC(=N)N)NC(=O)CN)C(=O)N1CCC[C@H]1C(=O)O (stereo partly drawn) [ALG-3001, Gly-Arg-Ala-Cys(acid)-Thr-Pro] |  | 50-60% | 15% | 15% |  |  |  |  |  |  |  | % NV Reduction Compared to Control Peptide ([1]; listed as ALG-3001 (P1)): 60% and 50%; Cell viability (% of MEM) ([2]; HQ 150 μM + 400 μM peptide): 27%***; Cell viability (% of MEM) ([2]; HQ 150 μM + 800 μM peptide): 37%****; Cell viability (% of MEM) ([2]; HQ 170 μM + 400 μM peptide): 27%****; Cell viability (% of MEM) ([2]; HQ 170 μM + 800 μM peptide): 53%**** |
| CC(O)[C@H](NC(=O)[C@H](CCC(=O)O)NC(=O)[C@H](C)NC(=O)[C@H](CCCNC(=N)N)NC(=O)CN)C(=O)N1CCC[C@H]1C(=O)O (stereo partly drawn) [ALG-3004, Gly-Arg-Ala-Glu-Thr-Pro] | 63% | 63% | 41% | 65% | significantly reduce ROS level | significantly improve mitochondria membrane potential | 94%**** | 99%**** | 60%**** | 90 | greater cytoprotective effect than RSG | % Reactive Species, peptide alone ([3]; peptide 400 μM): 100% NS; % Mitochondrial Membrane Potential, peptide alone ([4]; peptide 400 μM): 110%* |
| CC(O)[C@H](NC(=O)[C@H](CCCNC(=N)N)NC(=O)CNC(=O)[C@H](CS(=O)(=O)O)NC(=O)CN)C(=O)N1CCC[C@H]1C(=O)O (stereo partly drawn) [ALG-3008, Gly-Cys(acid)-Gly-Arg-Thr-Pro] | 63% | 63% | 12% | 36% |  |  | 77%*** | 81%**** | 38% NS | 65 |  |  |

From US12454549B2, “Treatments for diseases and disorders that involve oxidative stress” (Jenius Pharma, LLC, priority 2017, dated 2025)
